Source: US11066409B2, “Bicyclic nitrogen-containing heterocyclic derivatives and pharmaceutical composition comprising the same” (Shionogi & Co., Ltd., priority 2016, dated 2021)

The chains behind the UniProt entries cited, without tags or fusion partners.
UniProt Q99572, whole entry R270H: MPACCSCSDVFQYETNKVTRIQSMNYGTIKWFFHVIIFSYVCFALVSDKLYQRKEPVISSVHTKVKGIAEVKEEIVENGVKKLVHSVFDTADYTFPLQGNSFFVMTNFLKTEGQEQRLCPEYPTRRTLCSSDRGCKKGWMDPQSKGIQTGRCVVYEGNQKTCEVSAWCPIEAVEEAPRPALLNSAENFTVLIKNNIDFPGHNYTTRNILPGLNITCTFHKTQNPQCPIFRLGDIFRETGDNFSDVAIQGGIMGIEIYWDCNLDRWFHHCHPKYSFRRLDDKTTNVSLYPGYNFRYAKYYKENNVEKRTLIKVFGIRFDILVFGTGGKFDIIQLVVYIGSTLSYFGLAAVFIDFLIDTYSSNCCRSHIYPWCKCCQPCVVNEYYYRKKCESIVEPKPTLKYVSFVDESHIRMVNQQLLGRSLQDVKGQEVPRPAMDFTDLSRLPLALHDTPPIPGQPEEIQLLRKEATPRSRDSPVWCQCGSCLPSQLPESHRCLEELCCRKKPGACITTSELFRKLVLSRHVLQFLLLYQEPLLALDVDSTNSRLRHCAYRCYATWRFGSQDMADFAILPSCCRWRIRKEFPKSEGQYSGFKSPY

Target: human P2X7 receptor (Homo sapiens (Human), UniProt Q99572, R270H)
Experiment: Evaluation of a human P2X7 receptor inhibitory activity (Yo-Pro uptake, BzATP stimulation, FLIPR TETRA)
Conditions: 1321N1 cells stably expressing human P2X7 receptor, Yo-Pro fluorescence, class symbols
Protocol: Evaluation of a human P2X7 receptor inhibitory activity Stably expressing cell line (1321N1 cell transfected with the human P2X7 receptor gene (GenBank accession number NM_002562.5 including T606C and G952A SNP)) was used. The cells were seeded in a 384-well microtiter plate at a concentration of 8000 cells/well and cultured in the medium (10% fetal bovine serum, 25 mM HEPES, 1% penicillin and streptomycin in DMEM) for one day at 37° C. under 5% carbon dioxide atmosphere. After replacing with 20 μL of the HBSS buffer (20 mM HEPES, 55.6 mM D-glucose, 1× HBSS(−), pH7.4-7.5), 15 μL of 17.3 μM Yo-Pro solution in the HBSS buffer was added. […] Measurement of fluorescence intensity by FLIPR TETRA was started. After eight minutes, 15 μL of DMSO solutions containing different concentrations of the compound of the present invention as prepared by dilution with the HBSS buffer were dispensed to each well through the built-in automatic dispenser, and the measurement of fluorescence intensity was continued for 20 minutes. […] Changing values of fluorescence intensity by the compound of the present invention were calculated by difference between maximum and minimum fluorescence intensity for 20 minutes. Inhibition ratios (%) were calculated from the following equation:
[formula] IC50 was calculated using logistic approximation. […]

IC50: 10 to 100 nM
Compound: COc1ccc(C)c(Nc2nc(=O)c(F)c3n2C(c2ccc(F)cc2F)CC3)c1 (stereo not shown)
